According to ChEMBL document CHEMBL1148343, “Fragment-based drug discovery” (J Med Chem, 2004):

Assays:
Acetylcholinesterase = biological target: T1, Acetylcholinesterase (Mus musculus, UniProt P21836)
T1 sequence (P21836 whole entry): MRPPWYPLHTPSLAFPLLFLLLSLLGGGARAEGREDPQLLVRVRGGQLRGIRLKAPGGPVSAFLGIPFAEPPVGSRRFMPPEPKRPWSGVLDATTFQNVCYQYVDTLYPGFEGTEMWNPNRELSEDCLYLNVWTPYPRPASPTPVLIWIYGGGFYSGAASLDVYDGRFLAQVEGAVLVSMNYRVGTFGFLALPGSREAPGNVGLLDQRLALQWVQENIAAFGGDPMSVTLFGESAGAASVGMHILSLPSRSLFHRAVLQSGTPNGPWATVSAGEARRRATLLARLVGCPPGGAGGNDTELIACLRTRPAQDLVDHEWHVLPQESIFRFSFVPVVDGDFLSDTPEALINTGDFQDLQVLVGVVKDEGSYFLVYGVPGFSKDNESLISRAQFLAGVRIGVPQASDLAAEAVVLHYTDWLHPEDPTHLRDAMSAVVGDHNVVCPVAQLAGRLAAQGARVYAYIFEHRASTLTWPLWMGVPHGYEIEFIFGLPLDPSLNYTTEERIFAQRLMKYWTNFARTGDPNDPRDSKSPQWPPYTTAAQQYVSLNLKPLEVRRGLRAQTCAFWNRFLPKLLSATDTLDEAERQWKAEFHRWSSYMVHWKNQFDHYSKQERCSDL

[1] = biological target: T2, Tyrosine-protein phosphatase non-receptor type 1 (Homo sapiens, UniProt P18031)
T2 sequence (P18031 whole entry): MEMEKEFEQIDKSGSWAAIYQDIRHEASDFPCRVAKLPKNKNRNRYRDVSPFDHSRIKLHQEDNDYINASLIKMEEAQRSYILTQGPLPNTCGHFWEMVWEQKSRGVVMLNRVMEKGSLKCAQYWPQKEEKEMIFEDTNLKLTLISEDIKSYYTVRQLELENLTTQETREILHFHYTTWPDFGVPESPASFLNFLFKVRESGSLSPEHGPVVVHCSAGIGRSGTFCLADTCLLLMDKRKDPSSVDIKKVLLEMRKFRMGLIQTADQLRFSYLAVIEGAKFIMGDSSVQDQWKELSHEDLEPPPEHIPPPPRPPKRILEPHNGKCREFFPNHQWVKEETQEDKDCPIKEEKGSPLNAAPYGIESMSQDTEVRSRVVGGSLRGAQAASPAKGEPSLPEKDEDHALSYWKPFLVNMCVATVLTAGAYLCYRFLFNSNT

Ki [1]	Structure (SMILES)	Kd (Acetylcholinesterase)
–	Nc1ccc2c(c1)c(-c1ccccc1)[n+](CCCCCCc1cnnn1CCNc1c3c(nc4ccccc14)CCCC3)c1cc(N)ccc21	0.00041 nM
22 nM	CC(=O)NC(Cc1ccc(N(C(=O)C(=O)O)c2ccccc2C(=O)O)c2ccccc12)C(=O)NCCCCCOc1cc2ccccc2cc1C(=O)O (configuration not stated)	–
